{"sequences": {"note": "Chains of the proteins cited; added tags and fusions are not shown. Residues count along the entry.", "UniProt P02768, 25-609": "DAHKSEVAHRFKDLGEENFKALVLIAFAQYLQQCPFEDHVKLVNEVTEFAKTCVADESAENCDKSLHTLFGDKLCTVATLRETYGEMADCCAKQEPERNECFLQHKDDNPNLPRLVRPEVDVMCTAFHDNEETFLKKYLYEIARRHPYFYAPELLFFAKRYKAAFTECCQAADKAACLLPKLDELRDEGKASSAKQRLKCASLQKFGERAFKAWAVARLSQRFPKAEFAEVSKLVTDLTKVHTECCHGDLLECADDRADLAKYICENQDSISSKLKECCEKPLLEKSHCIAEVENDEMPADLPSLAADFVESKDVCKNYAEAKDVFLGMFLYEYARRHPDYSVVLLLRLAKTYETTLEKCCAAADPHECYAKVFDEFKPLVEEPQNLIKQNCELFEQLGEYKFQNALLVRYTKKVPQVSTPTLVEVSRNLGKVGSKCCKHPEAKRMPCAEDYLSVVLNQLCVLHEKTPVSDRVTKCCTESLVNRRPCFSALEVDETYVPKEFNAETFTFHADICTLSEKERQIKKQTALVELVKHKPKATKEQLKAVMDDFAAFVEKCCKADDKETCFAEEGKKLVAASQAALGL"}, "source": "paper PMC7307925", "about": "“Human Serum Albumin Binding in a Vial: A Novel UV-pH Titration Method To Assist Drug Design” (Journal of Medicinal Chemistry, 2020)", "key": {"[1]": {"target": "human serum albumin (HSA) (Homo sapiens, UniProt P02768)", "assay": "HSA binding by rapid equilibrium dialysis (RED)", "conditions": "10 µM compound, 4 g/L HSA in PBS pH 7.4, 37 °C, 4.5 hours"}, "[2]": {"assay": "UV-pH titration, pKa in aqueous medium (SiriusT3 fast UV pKa method)", "conditions": "absence of HSA, ISA-water 0.15 M KCl, 25.0 °C"}}}
{"substance": "Tenoxicam", "values": [{"measurement": "HSA% (RED)", "setting": "[1]", "value": "96.8 ± 0.0", "unit": "%"}, {"measurement": "Exp. aqueous pKa1 (pKa of monoprotic APIs)", "setting": "[2]", "value": "1.14 ± 0.03"}, {"measurement": "Exp. aqueous pKa2", "setting": "[2]", "value": "5.21 ± 0.01"}]}
